System: ovariectomized female mice
Details: mouse, in vivo

Lesions of uterine glands (in words): could cause lesions of uterine glands | Thickness of endometrium (pathological section) (0.104 mg/kg/day): 27.80 μm | Thickness of oviduct wall (pathological section) (0.104 mg/kg/day): 75.01 μm
Substance: conjugated estrogens
Thickening of endometria and oviduct walls (in words): could induce the thickening of endometria and oviduct walls | Uterine gland pathology (in words) (0.104 mg/kg/day): the density of a tissue around the uterine gland is significantly reduced
